Earlier results on one compound are cited in patent US20220127682A1, “SELECTION AND TREATMENT OF CANCER WITH COMBINATION THERAPIES” (Massachusetts Institute of Technology, priority 2020, published 2022).

Amino acid sequences for entries named in this document (tags omitted). A change or cut given only in a name is not applied to a line headed by its entry.
UniProt Q9NYY3: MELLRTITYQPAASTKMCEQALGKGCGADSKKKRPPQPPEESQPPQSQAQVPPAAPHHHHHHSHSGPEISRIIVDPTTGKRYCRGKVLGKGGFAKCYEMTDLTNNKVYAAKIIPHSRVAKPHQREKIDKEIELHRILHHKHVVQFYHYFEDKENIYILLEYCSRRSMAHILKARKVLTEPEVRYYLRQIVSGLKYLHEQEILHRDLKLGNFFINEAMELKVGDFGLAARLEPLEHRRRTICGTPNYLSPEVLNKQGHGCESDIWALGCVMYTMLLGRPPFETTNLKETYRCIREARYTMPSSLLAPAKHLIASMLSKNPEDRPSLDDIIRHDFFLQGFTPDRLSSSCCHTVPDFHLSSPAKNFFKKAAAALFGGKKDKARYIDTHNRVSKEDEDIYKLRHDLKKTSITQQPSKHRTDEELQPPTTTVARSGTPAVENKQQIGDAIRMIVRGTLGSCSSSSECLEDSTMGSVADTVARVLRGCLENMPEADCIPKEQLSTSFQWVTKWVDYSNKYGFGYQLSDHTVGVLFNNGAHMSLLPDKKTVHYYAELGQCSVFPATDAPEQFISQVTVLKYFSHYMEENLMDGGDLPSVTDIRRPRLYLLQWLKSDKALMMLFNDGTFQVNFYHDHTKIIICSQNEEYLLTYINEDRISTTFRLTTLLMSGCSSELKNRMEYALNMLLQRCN
UniProt Q9H4B4: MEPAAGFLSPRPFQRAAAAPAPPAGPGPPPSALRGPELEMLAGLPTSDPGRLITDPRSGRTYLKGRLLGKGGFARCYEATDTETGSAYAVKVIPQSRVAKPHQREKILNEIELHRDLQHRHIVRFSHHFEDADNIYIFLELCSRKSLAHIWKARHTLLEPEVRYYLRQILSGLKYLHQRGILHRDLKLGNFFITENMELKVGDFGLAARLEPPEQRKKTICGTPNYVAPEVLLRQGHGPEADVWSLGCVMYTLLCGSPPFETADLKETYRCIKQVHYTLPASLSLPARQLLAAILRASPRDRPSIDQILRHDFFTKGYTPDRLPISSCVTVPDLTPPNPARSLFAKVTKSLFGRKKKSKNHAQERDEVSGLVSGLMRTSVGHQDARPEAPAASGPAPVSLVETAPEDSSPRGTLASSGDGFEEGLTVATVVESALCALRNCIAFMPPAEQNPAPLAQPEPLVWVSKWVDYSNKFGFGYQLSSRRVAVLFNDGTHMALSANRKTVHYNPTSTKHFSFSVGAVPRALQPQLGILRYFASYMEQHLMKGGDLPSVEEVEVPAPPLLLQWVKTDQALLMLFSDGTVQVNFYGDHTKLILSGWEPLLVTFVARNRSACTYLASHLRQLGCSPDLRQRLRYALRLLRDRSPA

Data set [1] has as its target Plk2 (Homo sapiens, UniProt Q9NYY3). The following applies: relative to PLK1; cited from earlier work.
The target of data set [2] is Plk3 (Homo sapiens, UniProt Q9H4B4). The following applies: relative to PLK1; cited from earlier work.

Consider `CC[C@@H]1C(=O)N(C)c2cnc(Nc3ccc(C(=O)N[C@H]4CC[C@H](N5CCN(CC6CC6)CC5)CC4)cc3OC)nc2N1C(C)C` [BI6727, volasertib], for which the “selectivity against Plk2” value in data set [1] is reported as 6 fold. Besides, in data set [2], the “selectivity against Plk3” value is 65 fold.
